{"source": "PubChem BioAssay AID2029", "about": "(NMMLSC, 2009)", "note": "This is a selection; strong and weak results do not stand in their true shares. The source made the active and inactive calls.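 The calls were made as follows: active = GFP response relative to DMSO above a set limit, near the screen mean plus 3 SD (cut at about 150% in these data); inconclusive = Fewer than 70 cells measured for a yeast strain; inactive = the rest.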"}
{"assay": "modulators of CIT2-GFP expression in yeast, primary screen, S. cerevisiae, GFP fusion, multiplex flow cytometry, MLPCN library (AID 2029);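 also: ratio of well median GFP fluorescence to mean of DMSO wells on the plate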", "conditions": "S. cerevisiae CIT2-GFP strain, 3 h, at 10 µM, active compounds read high, 100 means same as DMSO wells"}
{"smiles": "O=P(Nc1nc2ccc(Cl)cc2s1)(c1ccccc1)c1ccccc1", "GFP response vs DMSO": "inactive: 92.5%"}
{"smiles": "O=C(O)c1ccccc1[As](=O)(O)O", "GFP response vs DMSO": "inactive: 102%"}
{"smiles": "CC(=O)Nc1ccc([As](=O)(O)O)cc1", "GFP response vs DMSO": "inactive: 98%"}
{"smiles": "CN(C(=O)Cc1ccc(Cl)c(Cl)c1)[C@H]1CCCC[C@@H]1N1CCCC1", "GFP response vs DMSO": "inactive: 86.8%"}
{"smiles": "CCOP(=O)(Nc1ccccc1)OCC", "GFP response vs DMSO": "inactive: 104%"}
{"smiles": "Cc1cc(SC(NC(=O)c2ccc(F)cc2)C(Cl)(Cl)Cl)ncn1", "note": "(stereo unspecified)", "GFP response vs DMSO": "inactive: 95.5%"}
{"smiles": "O=[N+]([O-])c1ncn(CCn2ncnc2[N+](=O)[O-])n1", "GFP response vs DMSO": "inactive: 97.1%"}
{"smiles": "CC(C)(C)C(=O)NC(Sc1ccncn1)C(Cl)(Cl)Cl", "note": "(stereo unspecified)", "GFP response vs DMSO": "inactive: 88%"}
{"smiles": "O=C(O)CNc1ccc([As](=O)(O)O)cc1", "GFP response vs DMSO": "inactive: 92.8%"}
{"smiles": "O=[N+]([O-])c1cccc(NC2=NCC(CBr)S2)c1", "note": "(stereo unspecified)", "GFP response vs DMSO": "inactive: 106%"}
{"smiles": "O=C(Nc1cc([As](=O)(O)O)ccc1O)c1ccccc1", "GFP response vs DMSO": "inactive: 71.2%"}
{"smiles": "CCN(/C(=N/P(=O)(N1CCOCC1)N1CCOCC1)N1CCOCC1)c1ccc(OC)cc1", "GFP response vs DMSO": "inactive: 95.4%"}
{"smiles": "C[N+]1=C2C=CC=CC=C2SC12C([N+](=O)[O-])=CC([N+](=O)[O-])=C[C-]2[N+](=O)[O-]", "note": "(stereo unspecified)", "GFP response vs DMSO": "inactive: 85.3%"}
{"smiles": "Nc1ccc([As](=O)(O)c2ccc(N)cc2)cc1", "GFP response vs DMSO": "inactive: 113%"}
{"smiles": "CC1CCN(C(=O)Oc2c(Cl)cc(Cl)c3cccnc23)CC1", "GFP response vs DMSO": "inactive: 104%"}
{"smiles": "CN(C)C(=O)OCCc1n(C)cc[n+]1C", "GFP response vs DMSO": "inactive: 107%"}
{"smiles": "CC(C)=N/N=C(\\N)N[N+](=O)[O-]", "GFP response vs DMSO": "inactive: 104%"}
{"smiles": "COc1ccc(C2=NCC(CBr)S2)cc1", "note": "(stereo unspecified)", "GFP response vs DMSO": "inactive: 101%"}
{"smiles": "O=[N+]([O-])c1cc([N+](=O)[O-])c(CCNc2ccccc2)c([N+](=O)[O-])c1", "GFP response vs DMSO": "inactive: 105%"}
{"smiles": "CCc1nc2c(n1)c1c(non1O)c1c2no[n+]1[O-]", "GFP response vs DMSO": "inactive: 108%"}
{"smiles": "Cc1ccc(NP(=O)(Oc2ccccc2)Oc2ccccc2)nc1", "GFP response vs DMSO": "inactive: 91.8%"}
{"smiles": "CC(=O)N1C2C3N(C(C)=O)C1C1N(C(C)=O)C(C(N1C(C)=O)N3C(C)=O)N2C(C)=O", "GFP response vs DMSO": "inactive: 106%"}
{"smiles": "O=[N+]([O-])c1cccc2n[nH]nc12", "GFP response vs DMSO": "inactive: 109%"}
{"smiles": "O=C(OC1CN2CCC1CC2)c1cccc([N+](=O)[O-])c1", "note": "(stereo unspecified)", "GFP response vs DMSO": "inactive: 99%"}
{"smiles": "CCOC(=O)c1ccc(NC(=O)C(C)(CCl)SC)cc1", "note": "(stereo unspecified)", "GFP response vs DMSO": "inactive: 86.2%"}
{"smiles": "CCC(C)N(CC(C)C)C(=S)SC(NC(C)=O)C(Cl)(Cl)Cl", "note": "(stereo unspecified)", "GFP response vs DMSO": "inactive: 93.3%"}
{"smiles": "COP1(=S)c2c(C)nn(CCC#N)c2N=C(c2ccc(F)cc2)N1C", "note": "(stereo unspecified)", "GFP response vs DMSO": "inactive: 111%"}
{"smiles": "O=C(Nc1ccncc1[N+](=O)[O-])c1ccc([N+](=O)[O-])cc1[N+](=O)[O-]", "GFP response vs DMSO": "inactive: 92.4%"}
{"smiles": "O=C(COc1ccccc1)OC1CN2CCC1CC2", "note": "(stereo unspecified)", "GFP response vs DMSO": "inactive: 88.9%"}
{"smiles": "CCOC(=O)Nc1cccc([As](=O)(O)O)c1", "GFP response vs DMSO": "inactive: 97.5%"}
{"smiles": "Cc1cc(SC(NC=O)C(Cl)(Cl)Cl)ncn1", "note": "(stereo unspecified)", "GFP response vs DMSO": "inactive: 96.4%"}
{"smiles": "O=[N+]([O-])c1ccc(Nc2ccc(Oc3ccc([N+](=O)[O-])cc3[N+](=O)[O-])cc2)c([N+](=O)[O-])c1", "GFP response vs DMSO": "inactive: 99.5%"}
{"smiles": "CCOC(=O)Nc1ccc([As](=O)(O)O)c(O)c1", "GFP response vs DMSO": "inactive: 103%"}
{"smiles": "Cc1cc(SC(NC(=O)c2ccccc2)C(Cl)(Cl)Cl)nc(C(C)C)n1", "note": "(stereo unspecified)", "GFP response vs DMSO": "inactive: 90.6%"}
{"smiles": "CC(C)c1ccc(OP(=O)(Nc2ccccn2)Oc2ccccc2F)cc1", "note": "(stereo unspecified)", "GFP response vs DMSO": "inactive: 88.2%"}
{"smiles": "O=[N+]([O-])c1cc([N+](=O)[O-])c(-c2ccn[nH]2)s1", "GFP response vs DMSO": "inactive: 84.8%"}
{"smiles": "CCN(CC)C(=S)SC(NC=O)C(Cl)(Cl)Cl", "note": "(stereo unspecified)", "GFP response vs DMSO": "inactive: 88.6%"}
{"smiles": "COc1cc(C(=O)NCC2(N3CCOCC3)CCCCC2)ccc1OCC(C)C", "GFP response vs DMSO": "inactive: 101%"}
{"smiles": "O=[As](O)(c1ccc(O)cc1)c1ccccc1O", "GFP response vs DMSO": "inactive: 90.5%"}
{"smiles": "C[As](=O)(O)c1cccc(C(=O)O)c1", "GFP response vs DMSO": "inactive: 109%"}
{"smiles": "Cc1ccc(OP(=O)(Nc2ccc([N+](=O)[O-])cn2)Oc2ccc(C)cc2)cc1", "GFP response vs DMSO": "inactive: 98.9%"}
{"smiles": "Cc1ccc2nc3c(c(C)c2c1)CC(C(Cl)Cl)S3", "note": "(stereo unspecified)", "GFP response vs DMSO": "inactive: 96.2%"}
{"smiles": "COc1ccc(N/C(=N/P(=O)(N2CCOCC2)N2CCOCC2)N2CCOCC2)cc1", "GFP response vs DMSO": "inactive: 98%"}
{"smiles": "Cc1c2c(nc3ccccc13)SC(C(Cl)Cl)C2", "note": "(stereo unspecified)", "GFP response vs DMSO": "inactive: 96.5%"}
{"smiles": "Cc1cc(=O)[nH]c(N[N+](=O)[O-])n1", "GFP response vs DMSO": "inactive: 106%"}
{"smiles": "O=C(OC1CN2CCC1CC2)C12CC3CC(CC(C3)C1)C2", "note": "(stereo unspecified)", "GFP response vs DMSO": "inactive: 103%"}
{"smiles": "COc1cc(I)ccc1[As](=O)(O)O", "GFP response vs DMSO": "inactive: 111%"}
{"smiles": "COc1ccc2nc(NP(=O)(c3ccccc3)c3ccccc3)sc2c1", "GFP response vs DMSO": "inactive: 100%"}
{"smiles": "Nc1cccc2c([As](=O)(O)O)cccc12", "GFP response vs DMSO": "inactive: 114%"}
{"smiles": "Cc1ccc(NCCc2c([N+](=O)[O-])cc([N+](=O)[O-])cc2[N+](=O)[O-])cc1", "GFP response vs DMSO": "inactive: 109%"}
{"smiles": "CCCOP(=S)(Nc1nc(N)cc(=O)[nH]1)OCCC", "GFP response vs DMSO": "inactive: 111%"}
